The text below walks through data of patent publication US4970206A, “Pyroglutamic acid esters used as dermal penetration enhancers for drugs” (Merck & Co., Inc., priority 1989, dated 1990).

The data set is described as follows: Permeation enhancement of enalapril, clonidine and acyclovir using pyroglutamic esters. As to conditions: no enhancer, n = 13. The class given is in vitro ADME, Elaphae obsolete (black rat snake). As to the method: In the examples given below, the permeation enhancement was determined using an in vitro diffusion cell procedure. The molts of adult Elaphae obsolete (black rat snake) was used as the model for stratum corneum membrane (R. Ibuki, Ph.D. Thesis, University of Kansas, 1985). The shed snake skin has great similarities to human skin in terms of thickness, composition of constituents and structure and has been proposed as the most suitable model for human stratum corneum for permeability studies.
Glass diffusion cells consisting of a donor and receptor cells separated by the shed snake skin membrane were assembled using circular O-ring joints held together by spring clamps. The exposed membrane surface area of the diffusion cell measured 1.8 cm^2. Before being mounted in the diffusion cell approximately 25 mg of an ointment containing the therapeutic agent and the penetration enhancer was carefully applied to the membrane and was spread over the desired area. The receptor side was filled with approximately 8.5 ml of buffer solution consisting of 1.5×10^-1 M NaCl, 5×10^-4 NaH2 PO4 and 2.0×10^-4 M Na2 HPO4 adjusted to pH 7.2 with NaOH. The diffusion cell was immersed vertically in a water bath maintained at 32°±1° C. […] The concentration of drug penetrated in each diffusion cell was measured using high pressure liquid chromatography. […]

On to `CCOC(=O)[C@H](CCc1ccccc1)N[C@@H](C)C(=O)N1CCC[C@H]1C(=O)O` [Enalapril, reference compound], for which the “% delivered in 48 hrs ± SD” value came to 0.9 ± 0.5%.
